A short description of the data set: DOX loading by fluorescence intensity. It is filed as physicochemical. Here is the method:
DOX (Sigma-Aldrich) was pre-incubated with CuCl2 at a 2:1 molecular ratio of DOX to Cu^2+ at room temperature for 20 min, as described previously. TTPNs were incubated with Cu(II)-DOX solution (1:200 molecular ratio of TTPNs to DOX) at 4° C. overnight. Free DOX was removed by dialysis and the encapsulation of DOX into TTPNs was analyzed by SEC using a Superdex 200 column (GE Healthcare). The amount of loaded DOX in TTPNs was determined by measuring fluorescence intensity of DOX using a DS-11 FX+ Fluorometer (DeNovix). After the disassembly process of DOX-TTPNs by mixing with 0.5 N HCl for 1 hour, the number of DOX molecules was quantified relatively using a standard curve of DOX fluorescence intensity.

As for “wtFTN: wild type ferritin nanocage (human ferritin heavy chain)”, the “DOX encapsulated in inner cavity” value is recorded as “up to 40 molecules of DOX”.

(Values after patent US20210054047A1, “NOVEL ANTICANCER FUSION PROTEIN AND USE THEREOF” (KOREA INSTITUTE OF SCIENCE AND TECHNOLOGY, priority 2018, published 2021).)
